Experimental data reported in patent publication US9757455B2, “Oral therapeutic compound delivery system” (Johnson & Johnson Consumer Inc., priority 2005, dated 2017).

Experiment: Solubility in water

| SMILES | Volume (mL) of water to dissolve dose (dose (mg) of each drug as in Table 78) | amount of ibuprofen that 200 mL water would dissolve (at pH in the range 6.3-6.8) |
| --- | --- | --- |
| O=C1Nc2ccc(Cl)cc2C(c2ccccc2Cl)=NC1O (centres unmarked) [Lorazepam] | 31 mL |  |
| CC(C)Cc1ccc(C(C)C(=O)O)cc1 (centres unmarked) [Ibuprofen] |  | 826 mg |
